This is an account of results in patent US20170349638A1, “COMPANION DIAGNOSTIC TOOL FOR PEPTIDOMIMETIC MACROCYCLES” (AILERON Therapeutics, Inc., priority 2016, published 2017).

Sequences of proteins named here, by UniProt entry; tags and fusion partners are left off.
UniProt Q00987, whole entry, looked up: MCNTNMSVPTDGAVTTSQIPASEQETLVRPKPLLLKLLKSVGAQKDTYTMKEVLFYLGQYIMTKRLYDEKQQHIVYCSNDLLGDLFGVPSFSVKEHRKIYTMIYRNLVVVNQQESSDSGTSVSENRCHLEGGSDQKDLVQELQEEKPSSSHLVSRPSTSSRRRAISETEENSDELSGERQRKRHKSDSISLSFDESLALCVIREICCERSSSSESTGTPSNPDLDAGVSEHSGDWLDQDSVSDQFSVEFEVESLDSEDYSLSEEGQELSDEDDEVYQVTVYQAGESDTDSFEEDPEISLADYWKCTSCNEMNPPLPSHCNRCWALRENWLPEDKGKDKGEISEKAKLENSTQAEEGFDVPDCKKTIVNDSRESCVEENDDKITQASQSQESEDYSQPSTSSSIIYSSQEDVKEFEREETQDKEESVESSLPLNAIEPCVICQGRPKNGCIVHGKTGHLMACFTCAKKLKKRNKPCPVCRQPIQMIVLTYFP

One series relates to SJSA-1 cells. Briefly: Cell viability assay (MTT, 72 h) SJSA-1.
Series [1] concerns Human Total p21 in SJSA1 cells. Briefly: P21 ELISA assay. Format: cell-based. In general terms: ELISA stands for enzyme-linked immunosorbent assay.
Series [2] is described as follows: Circular dichroism (CD) analysis of alpha-helicity. The series is classed as physicochemical. The following applies: difference 50% TFE minus benign buffer, 222 nm. How it is done:
Peptide solutions were analyzed by CD spectroscopy using a Jasco J-815 spectropolarimeter (Jasco Inc., Easton, Md.) with the Jasco Spectra Manager Ver.2 system software. A Peltier temperature controller was used to maintain temperature control of the optical cell. Results are expressed as mean molar ellipticity [θ] (deg cm^2dmol^−1) as calculated from the equation [θ]=θobs·MRW/10*1*c where θobs is the observed ellipticity in millidegrees, MRW is the mean residue weight of the peptide (peptide molecular weight/number of residues), 1 is the optical path length of the cell in centimeters, and c is the peptide concentration in mg/ml. Peptide concentrations were determined by amino acid analysis. Stock solutions of peptides were prepared in benign CD buffer (20 mM phosphoric acid, pH 2). The stocks were used to prepare peptide solutions of 0.05 mg/ml in either benign CD buffer or CD buffer with 50% trifluoroethanol (TFE) for analyses in a 10 mm pathlength cell. Variable wavelength measurements of peptide solutions were scanned at 4° C. from 195 to 250 nm, in 0.2 nm increments, and a scan rate 50 nm per minute. The average of six scans was reported.
For orientation: CD spectra are sensitive to the conformation of chiral molecules.

The next series deals with HDM2 (Homo sapiens, UniProt Q00987). The experiment in a line: FP Competition Blinding Assay | HDM2 IC50 (nM).
Setting [3] is: read-out: SJSA-1 EC50 (72 h), MTT.
[4] abbreviates: read-out: SJSA-1 EC50 (72 h), Table 26B.

Where two headings read alike, the source gives them in different places.

As usually defined, the EC50 is the midpoint of the concentration-response curve. On to “12 (LTFAAYWAALASAL; Ac, NH2, hydrocarbon staples, Nle; N-term Ac; MOD_RES (4)..(4): Alpha-Me R-azide 1,4 triazole (6 carbon) alanine olefin amino acid connected by an all-carbon crosslinker comprising one double bond; misc_feature (4)..(9): Crosslink between residues; MOD_RES (9) [compound 12]”, for which, in the series with SJSA-1 cells (setting [3]), the EC50 was in the range of 15 to 30 µM.
On the same count and under the same terms, the same measure for “13 (LTFAAYWAALASAA; Ac, NH2, hydrocarbon staples; N-term Ac; MOD_RES (4)..(4): Alpha-Me R-azide 1,4 triazole (6 carbon) alanine olefin amino acid connected by an all-carbon crosslinker comprising one double bond; misc_feature (4)..(9): Crosslink between residues; MOD_RES (9) [compound 13]”: 5 to 15 µM; for “155 (LTFAEYWAQLASAA; Ac, NH2, staple, 3-Cl-Phe; N-term Ac; MOD_RES (3)..(3): 3-chloro-Phe; MOD_RES (4)..(4): Alpha-Me R-azide 1,4 triazole (6 carbon) alanine olefin amino acid connected by an all-carbon crosslinker comprising one double bond; misc_feature (4)..(11): Cross) [compound 155]”: 15 to 30 µM.
Regarding “286 (LTFAAYWAQAAAALA; Ac, NH2, staple, Cba, Nle; N-term Ac; MOD_RES (4)..(4): Alpha-Me R-azide 1,4 triazole (6 carbon) alanine olefin amino acid connected by an all-carbon crosslinker comprising one double bond; misc_feature (4)..(11): Crosslink between residues; MOD_RES () [compound 286]”, in series [1], the “p21 0.3 uM” value was found to be 481, the “p21 1 uM” value is listed as 1351, the “p21 3 uM” value is recorded as 2882 and the “p21 10 uM” value is 3383. The “p21 30 uM” value in series [1] was determined as 2479.
On the same counts, the results for “287 (LTFAEYWAQAAAAIA; Ac, NH2, staple, difluoro-Phe, Cba; N-term Ac; MOD_RES (3)..(3): 3,4-difluoro-Phe; MOD_RES (4)..(4): Alpha-Me R-azide 1,4 triazole (6 carbon) alanine olefin amino acid connected by an all-carbon crosslinker comprising one double bond; misc_feature (4)..(11): C) [compound 287]” are 97, 398, 986, 2828 and 3410.
As to “333 (LTFAEFWAQAASALA; Ac, NH2, staple, non-natural residues; N-term Ac; MOD_RES (4)..(4): Alpha-Me R-azide 1,4 triazole (6 carbon) alanine olefin amino acid connected by an all-carbon crosslinker comprising one double bond; misc_feature (4)..(11): Crosslink between residues; MOD_RES () [compound 333]”, the EC50 in the series with SJSA-1 cells (setting [3]) is 15 to 30 µM.
Regarding `CC(=O)N[C@@H](CC(C)C)C(=O)N[C@H](C(=O)N[C@@H](Cc1ccccc1)C(=O)N[C@]1(C)CCCCCCn2cc(nn2)CCC[C@@](C)(C(=O)N[C@@H](C)C(=O)N[C@@H](C)C(=O)N[C@@H](C)C(=O)N[C@@H](C)C(=O)N[C@@H](C)C(=O)N[C@H](C)C(N)=O)NC(=O)[C@H](CC(C)C)NC(=O)[C@H](CCC(N)=O)NC(=O)[C@H](C)NC(=O)[C@H](Cc2c[nH]c3ccccc23)NC(=O)[C@H](Cc2ccc(O)cc2)NC(=O)[C@H](C)NC1=O)[C@@H](C)O` [SP450, Ac-LTF$4rn6AYWAQL$4a5AAAAAa-NH2], the EC50 in the series with SJSA-1 cells (setting [4]) lay within 5 to 15 µM.
Still for that read-out and setting: the same measure for `CC(=O)N[C@@H](CC(C)C)C(=O)N[C@H](C(=O)N[C@@H](Cc1ccccc1)C(=O)N[C@]1(C)CCCCCCn2cc(nn2)CCC[C@@](C)(C(=O)N[C@@H](C)C(=O)N[C@@H](C)C(=O)N[C@@H](C)C(=O)N[C@@H](C)C(=O)N[C@@H](C)C(=O)N[C@H](C)C(N)=O)NC(=O)[C@H](CC(C)C)NC(=O)[C@H](CCC(N)=O)NC(=O)[C@H](C)NC(=O)[C@H](Cc2c[nH]c3ccccc23)NC(=O)[C@H](Cc2ccc(O)cc2)NC(=O)[C@H](CCC(=O)O)NC1=O)[C@@H](C)O` [SP451, Ac-LTF$4rn6EYWAQL$4a5AAAAAa-NH2]: 5 to 15 µM.
Still for that read-out and setting: the figure for `CC(=O)N[C@@H](CC(C)C)C(=O)N[C@H](C(=O)N[C@@H](Cc1ccccc1)C(=O)N[C@]1(C)CCCCCCn2nnc(c2I)CCC[C@@](C)(C(=O)N[C@@H](CO)C(=O)N[C@@H](C)C(=O)N[C@@H](C)C(N)=O)NC(=O)[C@H](CC2CCC2)NC(=O)[C@H](CCC(N)=O)NC(=O)[C@H](C)NC(=O)[C@H](Cc2c[nH]c3ccccc23)NC(=O)[C@H](Cc2ccc(O)cc2)NC(=O)[C@H](CCC(=O)O)NC1=O)[C@@H](C)O` [SP457, Ac-LTF$4rn6EYWAQCba5I-$4a5SAA-NH2] is less than 5 µM.
The same measure, in the same setting: the same measure for `CC(=O)N[C@@H](CC(C)C)C(=O)N[C@H](C(=O)N[C@@H](C)C(=O)N[C@]1(C)CCCCCCn2nncc2CCC[C@@](C)(C(=O)N[C@@H](CO)C(=O)N[C@@H](C)C(=O)N[C@@H](C)C(N)=O)NC(=O)[C@H](CC2CCC2)NC(=O)[C@H](CCC(N)=O)NC(=O)[C@H](C)NC(=O)[C@H](Cc2c[nH]c3ccccc23)NC(=O)[C@H](Cc2ccc(O)cc2)NC(=O)[C@H](CCC(=O)O)NC1=O)[C@@H](C)O` [SP459, Ac-LTA$5rn6EYWAQCba$5a5SAA-NH2]: more than 30 µM; for `CC(=O)N[C@@H](CC(C)C)C(=O)N[C@H](C(=O)N[C@@H](C)C(=O)N[C@]1(C)CCCCCCn2cc(nn2)CCC[C@@](C)(C(=O)N[C@@H](CO)C(=O)N[C@@H](C)C(=O)N[C@@H](C)C(N)=O)NC(=O)[C@H](CC2CCC2)NC(=O)[C@H](CCC(N)=O)NC(=O)[C@H](C)NC(=O)[C@H](Cc2c[nH]c3ccccc23)NC(=O)[C@H](Cc2ccc(O)cc2)NC(=O)[C@H](CCC(=O)O)NC1=O)[C@@H](C)O` [SP460, Ac-LTA$4rn6EYWAQCba$4a5SAA-NH2]: more than 30 µM.
For `CCCC[C@H](NC(=O)[C@H](C)NC(=O)[C@H](C)NC(=O)[C@]1(C)CSCCCCCCCSC[C@@](C)(NC(=O)[C@H](Cc2ccccc2)NC(=O)[C@@H](NC(=O)[C@H](CC(C)C)NC(C)=O)[C@@H](C)O)C(=O)N[C@@H](C)C(=O)N[C@@H](Cc2ccc(O)cc2)C(=O)N[C@@H](Cc2c[nH]c3ccccc23)C(=O)N[C@@H](C)C(=O)N[C@@H](CCC(N)=O)C(=O)N[C@@H](CC(C)C)C(=O)N1)C(=O)N[C@@H](C)C(N)=O` [SP916, Ac-LTF%cs7AYWAQL%c7AANleA-NH2], in the series with SJSA-1 cells (setting [4]), the EC50 lay within 15 to 30 µM.
On the same count and under the same terms, the same measure for `CC(=O)N[C@@H](CC(C)C)C(=O)N[C@H](C(=O)N[C@@H](Cc1ccccc1)C(=O)N[C@]1(C)CSCCCCCCCSC[C@@](C)(C(=O)N[C@@H](C)C(=O)N[C@@H](C)C(=O)N[C@@H](C)C(=O)N[C@@H](C)C(=O)N[C@@H](C)C(=O)N[C@H](C)C(N)=O)NC(=O)[C@H](CC(C)C)NC(=O)[C@H](CCC(N)=O)NC(=O)[C@H](C)NC(=O)[C@H](Cc2c[nH]c3ccccc23)NC(=O)[C@H](Cc2ccc(O)cc2)NC(=O)[C@H](C)NC1=O)[C@@H](C)O` [SP917, Ac-LTF%cs7AYWAQL%c7AAAAAa-NH2]: more than 30 µM.
For `CCCC[C@H](NC(=O)[C@H](C)NC(=O)[C@H](C)NC(=O)[C@]1(C)CCC/C=C/CCCCCC[C@@](C)(NC(=O)[C@H](Cc2ccccc2)NC(=O)[C@@H](NC(=O)[C@H](CC(C)C)NC(C)=O)[C@@H](C)O)C(=O)N[C@@H](C)C(=O)N[C@@H](Cc2ccc(O)cc2)C(=O)N[C@@H](Cc2c[nH]c3ccccc23)C(=O)N[C@@H](C)C(=O)N[C@@H](CCC(N)=O)C(=O)N[C@@H](CC(C)C)C(=O)N1)C(=O)N[C@@H](C)C(N)=O` [compound 69], in series [2], the “Molar Ellipticity TFE − Molar Ellipticity Benign” value is reported as −21407.1 deg cm^2dmol^−1.
One may read the IC50 as the concentration that gives 50% inhibition. Take “Ac- E T F $r8 A Y W A Q $ S -NH2 [SP-508]”: the IC50 on HDM2 amounted to 0.0228 µM.
Turning to Ac-LTF$5rn6AYWAQL$5a5AAAAAa-NH2 [SP452], the EC50 in the series with SJSA-1 cells (setting [4]) was more than 30 µM.
The same measure, in the same setting: the figure for “Ac-LTF%csBphAYWAQL%cBphAAAAAa-NH2 [SP919]” is 5 to 15 µM.
